Laboratory results from patent US20040110775A1, “Cyclin dependent kinase inhibiting purine derivatives” (priority 2001, published 2004).

molecular target: CDK2 (Homo sapiens, UniProt P24941); experiment: Inhibition of CDK2 (CDK inhibition assay); conditions: IC50 ± SD CDK2

Row | IC50 | SMILES
1 | 6800 ± 4800 nM | Brc1cccc(Nc2nc(OCC3CCCCC3)c3[nH]cnc3n2)c1 [NU6095, 2-(3′-Bromoanilino)-6-cyclohexylmethoxypurine]
2 | 400 ± 100 nM | OCc1cccc(Nc2nc(OCC3CCCCC3)c3[nH]cnc3n2)c1 [NU6151, [3-(6-Cyclohexylmethoxy-9H-purin-2-ylamino)phenyl]methanol]
3 | 700 ± 30 nM | COc1ccc(Nc2nc(OCC3CCCCC3)c3[nH]cnc3n2)cc1 [NU6100, 6-Cyclohexylmethoxy-2-(4′-methoxyanilino)purine]
4 | 70 ± 8 nM | COc1cc(Nc2nc(OCC3CCCCC3)c3[nH]cnc3n2)ccc1S(N)(=O)=O [NU6161, 4-[6-Cyclohexylmethoxy-9H-purin-2-ylamino]-benzene(3′-methoxy)sulfonamide]
5 | 1800 ± 200 nM | COc1cccc(Nc2nc(OCC3CCCCC3)c3[nH]cnc3n2)c1 [NU6096, 6-Cyclohexylmethoxy-2-(3′-methoxyanilino)purine]
6 | 2400 ± 300 nM | Clc1cccc(Nc2nc(OCC3CCCCC3)c3[nH]cnc3n2)c1 [NU6086, 2-(3′-Chloroanilino)-6-cyclohexylmethoxypurine]

Row | SMILES | IC50
7 | CNS(=O)(=O)c1ccc(Nc2nc(OCC3CCCCC3)c3nc[nH]c3n2)cc1 [NU6127, 4-(6-Cyclohexylmethoxy-2-ylamino)-N-methylbenzenesulfonamide] | 7 ± 0.1 nM
8 | CSc1cccc(Nc2nc(OCC3CCCCC3)c3nc[nH]c3n2)c1 [NU6101, 6-Cyclohexylmethoxy-2-(3′-methylmercaptoanilino)purine] | 1700 ± 100 nM
9 | NC(=O)c1ccc(Nc2nc(OCC3CCCCC3)c3nc[nH]c3n2)cc1 [NU6141, 4-(6-Cyclohexylmethoxy-9H-purin-2-ylamino)benzamide] | ~100 nM
10 | CN(C)S(=O)(=O)c1ccc(Nc2nc(OCC3CCCCC3)c3nc[nH]c3n2)cc1 [NU6128, 4-(6-Cyclohexylmethoxy-2-ylamino)-N,N-dimethylbenzenesulfonamide] | 56 ± 20 nM
